# Ab-14 heavy chain CDR variants: yeast mating affinities

Source: Engelhart et al. 2022 (doi:10.1038/s41597-022-01779-4), MIT Lincoln Laboratory and A-Alpha Bio; data file from the FLAb repository.

All variants were tested on one target, the spike HR2 peptide PDVDLGDISGINAS (SARS-CoV-2).

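The starting antibody came from a phage panning campaign against this peptide. The library (AAYL49) carries one to three amino acid substitutions per variant, with no insertions or deletions. The scFvs were displayed on barcoded MATa yeast, the peptide on MATalpha yeast. The frequency of each diploid, read from paired DNA barcodes, reflects how well the two displayed proteins bind. The ratio of observed to expected reads was calibrated, replicate by replicate, on BCL2-family standards whose Kd was known from biolayer interferometry. The assay was run in three technical replicates.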

Each scFv is VH, a (GGGGS)3 linker, VL, as in the parent Ab-14, and differs from it in the CDRs of the heavy chain only.
VH: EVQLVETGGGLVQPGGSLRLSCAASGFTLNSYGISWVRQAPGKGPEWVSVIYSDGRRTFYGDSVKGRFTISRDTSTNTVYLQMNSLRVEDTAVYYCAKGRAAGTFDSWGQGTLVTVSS
VL: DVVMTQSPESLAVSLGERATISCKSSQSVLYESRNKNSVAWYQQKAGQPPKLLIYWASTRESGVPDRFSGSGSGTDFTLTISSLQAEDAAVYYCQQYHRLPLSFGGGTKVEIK

Each variant is given by its three heavy chain CDRs, as the data file delimits them; those of the parent are GFTLNSYGIS, VIYSDGRRTFYGDSVK, GRAAGTFDS. Numbers give log10(Kd / nM), so 0 is 1 nM and 3 is 1 µM. Smaller is tighter. Averages over replicates are reported, and they cover detected replicates only. Where no diploid with the target was found in any replicate, the entry reads "nd": below detection, most likely a poor binder, though not proof of it. As a blank, each scFv also met three strains without target: over library AAYL49, 15% of these pairings were detected, typically at 4.06 and seldom below 2.83. For reference, the parent read 0.65 as the reference entry and 4.11 (one replicate of three) as a member of this library.

| CDR-H1 | CDR-H2 | CDR-H3 | log10 Kd (nM), mean | replicates with signal |
|---|---|---|---|---|
| GFSLNSYGIS | VIYSDGRRTWYGDSVK | GWAAGTFDS | 1.13 | 3/3 |
| GFILNSAKIS | VIYSDGRRTFYGDSVK | GRAAGTFDS | nd | 0/3 |
| GFCLNSFGIS | VIYSDGRRTGYGDSVK | GRAAGTFDS | 2.83 | 3/3 |
| GFWLNSYGIS | VIYSDLRRTFYGDSVK | GRAAGTFDS | nd | 0/3 |
| GFTLNSYGIS | VIRSDGRRTFYGASVK | GRAAGTFDS | nd | 0/3 |
| GHTLNSHGIS | VIYSDGRRTFYGDSVK | GRADGTFDS | 3.19 | 1/3 |
| GITLNSYGIS | VIYSDGRRTFYGDNVK | VRAAGTFDS | nd | 0/3 |
| GSTLNSYGIC | VINSDGRRTFYGDSVK | GRAAGTFDS | 3.95 | 2/3 |
| GFTLWSYGIS | VIYSDGRRTFYGDAVK | GRAAGTTDS | nd | 0/3 |
| GFELNSCGIS | VIYSDGRRTFYGDSVK | GRAAGAFDS | nd | 0/3 |
| GFTTNSYGIS | VIYSDGRRTFYGDPVK | GRSAGTFDS | 2.55 | 2/3 |
| GFTLNSYGIS | VIYSDGRCTFYGDSVK | GRAAGAFDS | 3.26 | 1/3 |
| GFTLNSYGIA | VIYSDGRRTFYGDSVK | GLAAGTFQS | 4.22 | 1/3 |
| SFTENSYGIS | VIYSDGRRTIYGDSVK | GRAAGTFDS | nd | 0/3 |
| GFTLNPYGIS | VIYSDGRRTFYGDSVK | GRAAYTTDS | 4.27 | 2/3 |
| GFTLNSYGIS | VIYSDGFRTFYGDSVK | GRACGTFDS | 2.85 | 1/3 |
| GFTLNSYGIS | QIYSDGRGTFYGDEVK | GRAAGTFDS | nd | 0/3 |
| GFTLESYLIS | VIYSDGRRTFYGDSVK | GRAAGTFDS | nd | 0/3 |
| GFTLNSYGIS | VIYSDGTRTFYGDSHK | GRAAGTFNS | nd | 0/3 |
| GFTLQSYGIS | VIYSDGRRTFYGDSVK | GRPAGTFMS | 4.17 | 1/3 |
| GFTLSSYGIS | VIYSDGRRKFYGDSVK | GRIAGTFDS | nd | 0/3 |
| GFTLNSYRIS | VYYSDGDRTFYGDSVK | GRAAGTFDS | 3.96 | 2/3 |
| DFTLNSYGIS | VIYSDGRRTFYGDSVK | GRAAGEFDQ | 2.77 | 1/3 |
| GFTLNSYGIS | VIYSDGRRTFYGDSVK | GREAGFFFS | 0.72 | 3/3 |
| GFTLNSYGIS | VIYSDGRRTFYGDSVK | GRQAGTFDV | 0.66 | 3/3 |
| GFTLNSYGIS | VIYSDGRRTFYGISVK | GRAAGTFDR | nd | 0/3 |
| GFTLNSQGIS | VIYSDGRRTFYGDSVC | GEAAGTFDS | 4.26 | 2/3 |
| GFTLNSYHIS | HIYSDGRRTFYGDSVK | GRAAGFFDS | 3.91 | 1/3 |
| GFILNSYGIS | VIYSDGRRTFYGDSVK | GLAAGTFDS | 1.84 | 3/3 |
| GFTLNSYIIS | FIYSDGRETFYGDSVK | GRAAGTFDS | 2.97 | 1/3 |
| DFTLNSYGIS | VIYTDGRRTFYGCSVK | GRAAGTFDS | 3.18 | 1/3 |
| CFTLNSYGIS | VIYSDKYRTFYGDSVK | GRAAGTFDS | nd | 0/3 |
| GFTLNSYGIS | VIYSIGFRTFYGDSVK | GRAAGTFDS | nd | 0/3 |
| GFTLNSFGIS | VIYSDGRRTFYIDGVK | GRAAGTFDS | 1.76 | 3/3 |
| NFTLNSTGIS | VIYSDGKRTFYGDSVK | GRAAGTFDS | nd | 0/3 |
| GFTLNSYGIS | VIYSDGRMTFYGDSVK | GRAAGNWDS | nd | 0/3 |
| GFTLNSYLIS | VIYSDGRRTFYGDSKK | GRAAGTFDP | nd | 0/3 |
| GFTLNSYGIS | VIYSDGRRTFYGFSVK | GRAAFTFDR | 3.93 | 1/3 |
| GFTLNSYGIE | VIYSDGRRTMYGDSVK | GRAYGTFDS | nd | 0/3 |

Further variants, results first:

| log10 Kd (nM), mean | replicates with signal | CDR-H1 | CDR-H2 | CDR-H3 |
|---|---|---|---|---|
| 4.91 | 1/3 | GFTHNSYGAS | VIYSDGRRTFYGDSVK | GRAAGTFDS |
| nd | 0/3 | GFTLKSYGIS | VIYSDGRRTFYGDCVK | GRAARTFDS |
| 4.05 | 1/3 | GFHLNSGGIS | VIYSDGRRTFYGDGVK | GRAAGTFDS |
| nd | 0/3 | GFTLNSYGIS | VIFIDGRRTIYGDSVK | GRAAGTFDS |
| nd | 0/3 | GFTLNSYGIS | VVYSDGATTFYGDSVK | GRAAGTFDS |
| nd | 0/3 | GFGLNSYGIS | VWYSDGRRTFYGDSVK | GRAEGTFDS |
| 1.18 | 3/3 | GFTLNSYGIS | VIYSDGDRTFYGDSVK | GRAAGTNDS |
| 2.34 | 3/3 | RFTLNSYGIS | VIYSDGRRTHYTDSVK | GRAAGTFDS |
| nd | 0/3 | GFTRNSYGIS | CIYSEGRRTFYGDSVK | GRAAGTFDS |
| 1.68 | 3/3 | GFTLANYGIS | VIYFDGRRTFYGDSVK | GRAAGTFDS |
| nd | 0/3 | GFTLNAYGIS | FIYSDGRRTFMGDSVK | GRAAGTFDS |
| nd | 0/3 | GFTLDSYGIS | VIISDGRRTFYGKSVK | GRAAGTFDS |
| nd | 0/3 | WFTLNSYGIS | VIYSDGRRTFYGDSVT | GRAAGTFDK |
| nd | 0/3 | GFTLNSGGLS | VIYSDGRRTFYGDSYK | GRAAGTFDS |
| 5.38 | 2/3 | GFTLNSYGCS | VIYSDGRRTEYGDSVK | GRAAGTFDN |
| nd | 0/3 | WFTLNSVGIS | VIYSDGRRCFYGDSVK | GRAAGTFDS |
| nd | 0/3 | GFTYNSYGIS | VIYSDGRRTQYGDSVK | GRACGTFDS |
| 3.86 | 1/3 | GFTLVSYGIS | VIYSQGRRTFYGDSVK | SRAAGTFDS |
| 4.24 | 2/3 | GPTLNSYGIS | VISSDGRRAFYGDSVK | GRAAGTFDS |
| nd | 0/3 | GFTLNSYWIS | VIYSDGRRTFEGDSVK | GRAAGTNDS |
| nd | 0/3 | GFTYDSYGIS | VIYSDGRRTFYGDSVK | GRAEGTFDS |
| nd | 0/3 | GFTLNSYMIS | VIYSDGRRTKYGDSVK | GRAAGTFDH |
| nd | 0/3 | GFTLNSYRIS | VIYSDGRRTFYGVSVK | GRAAGTFKS |
| nd | 0/3 | GFTLNSYGIC | VIYSDGRRTFYGDSVT | IRAAGTFDS |
| 2.86 | 2/3 | GFTLNSYGIS | VVYSDGRRTFCEDSVK | GRAAGTFDS |
| nd | 0/3 | GFTKNSYGIS | VIYSDQRRTFYGDSVK | GRAKGTFDS |
| 5.19 | 1/3 | GFTLNSYGIS | VDYSDGRRTFYKDSVK | GRAAGTFDS |
| 4.91 | 2/3 | GFTLNSYGIS | VIYRDGRRTFYLDSVP | GRAAGTFDS |
| nd | 0/3 | GETLNSYGIS | VIYSDGRRTFGGDSVK | GSAAGTFDS |
| 3.13 | 1/3 | GFRLNSYGIS | VIYSDGRRTFYGDSVK | GRAVGTGDS |
| 4.28 | 1/3 | GWTLNSYGIS | VIYSDGTRTFYGDSVK | GRAAGTFDS |
| 3.91 | 2/3 | GFTLNPYGIS | VIYSDGRRTFYGDSVK | GTWAGTFDS |
| 3.69 | 1/3 | GFTLNWYGIS | VIYSDGRRTFYGDGVK | GRAAGTFDS |
| 3.56 | 2/3 | GFTLNSYGIS | VIYSDGRRTFYVDSTK | GRAAGTFDS |
| nd | 0/3 | GFTLNSDGIS | VIYSDGRRGFYGDSVK | GRAAGTFDH |
| nd | 0/3 | GFTLNSLGIT | VIYSDGRRTFYGDSVK | GRAAGTWDS |
| nd | 0/3 | GFTLNLYGIS | VIYSQGRRVFYGDSVK | GRAAGTFDS |
| nd | 0/3 | FFTLNSYGIS | DIYSDGRRTFYGDSVK | GRAFGTFDS |
| nd | 0/3 | GFTLNSYGIS | VIYSDGRRTFYGDSKK | GCNAGTFDS |
| nd | 0/3 | YFTLCSYGIS | VIYSDGRRTFYGDSVK | GRAAGTFKS |

Picked from the list: the 9 lowest averages where every replicate gave a value.

| CDR-H1 | CDR-H2 | CDR-H3 | log10 Kd (nM), mean | replicates with signal |
|---|---|---|---|---|
| GFTLNSYGIS | VIYSDGRRTFYGDSVK | GRQAGTFDV | 0.66 | 3/3 |
| GFTLNSYGIS | VIYSDGRRTFYGDSVK | GREAGFFFS | 0.72 | 3/3 |
| GFSLNSYGIS | VIYSDGRRTWYGDSVK | GWAAGTFDS | 1.13 | 3/3 |
| GFTLNSYGIS | VIYSDGDRTFYGDSVK | GRAAGTNDS | 1.18 | 3/3 |
| GFTLANYGIS | VIYFDGRRTFYGDSVK | GRAAGTFDS | 1.68 | 3/3 |
| GFTLNSFGIS | VIYSDGRRTFYIDGVK | GRAAGTFDS | 1.76 | 3/3 |
| GFILNSYGIS | VIYSDGRRTFYGDSVK | GLAAGTFDS | 1.84 | 3/3 |
| RFTLNSYGIS | VIYSDGRRTHYTDSVK | GRAAGTFDS | 2.34 | 3/3 |
| GFCLNSFGIS | VIYSDGRRTGYGDSVK | GRAAGTFDS | 2.83 | 3/3 |